Key:
[1] = molecular target: T1, D1 receptor (Rattus norvegicus, UniProt P18901); experiment: Interaction with D1 receptor, [3H]-SCH 23390 radioligand binding, striate; conditions: Table 2; read-out: D1 Ki (nM) ± ds
T1 construct: was studied using various different cerebral areas (striate D1 and D2; olfactory tubule D3; prefrontal cortex 5HT2a); from tissue; host or cells: striatum ('striate')

Chains of the proteins cited; added tags and fusions are not shown.
UniProt P18901, whole entry: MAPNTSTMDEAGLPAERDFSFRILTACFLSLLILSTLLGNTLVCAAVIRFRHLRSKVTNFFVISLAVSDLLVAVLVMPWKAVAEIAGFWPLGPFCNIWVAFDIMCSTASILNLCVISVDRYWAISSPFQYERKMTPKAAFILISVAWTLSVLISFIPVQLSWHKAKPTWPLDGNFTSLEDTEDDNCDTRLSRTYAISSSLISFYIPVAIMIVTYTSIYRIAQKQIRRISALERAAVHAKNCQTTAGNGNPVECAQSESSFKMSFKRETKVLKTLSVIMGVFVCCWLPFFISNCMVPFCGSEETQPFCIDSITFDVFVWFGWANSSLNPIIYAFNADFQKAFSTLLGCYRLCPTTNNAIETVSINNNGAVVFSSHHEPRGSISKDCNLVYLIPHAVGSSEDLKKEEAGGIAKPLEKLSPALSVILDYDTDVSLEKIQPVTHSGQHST
UniProt P19020, whole entry: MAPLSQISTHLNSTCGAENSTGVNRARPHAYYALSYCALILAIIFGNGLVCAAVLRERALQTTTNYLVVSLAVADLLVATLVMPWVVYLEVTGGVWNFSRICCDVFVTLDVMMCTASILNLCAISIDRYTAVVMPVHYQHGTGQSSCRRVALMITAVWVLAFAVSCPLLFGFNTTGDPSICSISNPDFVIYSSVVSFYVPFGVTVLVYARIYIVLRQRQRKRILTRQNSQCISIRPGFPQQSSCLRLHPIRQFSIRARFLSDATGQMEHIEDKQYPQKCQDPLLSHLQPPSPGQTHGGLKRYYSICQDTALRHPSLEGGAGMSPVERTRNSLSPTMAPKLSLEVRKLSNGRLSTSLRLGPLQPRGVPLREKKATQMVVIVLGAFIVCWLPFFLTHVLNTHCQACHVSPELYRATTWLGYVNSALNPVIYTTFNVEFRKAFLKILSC
UniProt P14842, whole entry: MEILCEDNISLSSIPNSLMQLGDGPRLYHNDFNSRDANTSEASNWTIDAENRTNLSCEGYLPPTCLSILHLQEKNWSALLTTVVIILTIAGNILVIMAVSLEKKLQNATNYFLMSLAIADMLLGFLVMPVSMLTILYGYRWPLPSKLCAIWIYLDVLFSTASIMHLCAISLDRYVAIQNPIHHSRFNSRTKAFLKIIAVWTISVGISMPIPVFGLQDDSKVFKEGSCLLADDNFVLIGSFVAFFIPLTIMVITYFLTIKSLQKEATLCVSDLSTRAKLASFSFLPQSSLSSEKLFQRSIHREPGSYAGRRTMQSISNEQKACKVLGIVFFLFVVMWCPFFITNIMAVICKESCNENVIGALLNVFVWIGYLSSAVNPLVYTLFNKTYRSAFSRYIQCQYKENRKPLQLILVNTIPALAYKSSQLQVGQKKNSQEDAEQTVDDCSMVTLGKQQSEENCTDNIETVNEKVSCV

[2] = molecular target: D3 receptor (Rattus norvegicus, UniProt P19020); experiment: Interaction with D3 receptor, 3H-7-OH-DPAT radioligand binding, olfactory tubule
[3] = system: 5-HT2 versus D2 receptor; experiment: Classification of typical and atypical antipsychotics by 5-HT2 versus D2 pKi ratio and Log Y score
[4] = molecular target: 5HT2a receptor (Rattus norvegicus, UniProt P14842); experiment: Interaction with 5HT2a receptor, 3H-ketanserine radioligand binding, prefrontal cortex; conditions: Table 3; read-out: 5-HT2a pKi (converted)

Q: Which results are given for `CN1CCN(C2=Cn3cccc3Sc3ccccc32)CC1` [ST1899, 9-(4-Methylpiperazin-1-yl) Pyrolo [2,1-b][1,3]benzothiazepine]?
A: Ki [1]: 19 ± 1.3 nM; Ki [2]: 8 ± 0.5 nM; LogY ([3]; Log Y score smaller than 6.48 = atypical profile): 4.98; binding affinity at 5 HT2 receptor compared with D2 dopamine receptor ([3]; in words): greater than D2 dopamine receptor

Q: Which Ki [4] does the source give for `Cc1ccc2n1C=C(N1CCN(C)CC1)c1ccccc1S2` [ST2092, 1-Methyl-9-(4-methylpiperazin-1-yl)pyrrolo[2,1-b][1,3]benzothiazepine] here?
A: Its Ki is 1.12 nM.
